The values below come from US7872043B2, “Use of furan alkyls for a cellulite cosmetic treatment” (Laboratories Expanscience, priority 2004, dated 2011).

In data set [1] the test system is GSH-S-transferase (target PXR). The data set can be described thus: Liver mRNA expression, real-time Q-RT-PCR: GSH-S-transferase. In kind it is in vivo, mice. The following applies: TZD; AV102 (0.25%). As to the method:
In the liver, the mRNA expressions of 8 genes were determined in 5 mice of each group using real-time Q-RT-PCR analysis.

The test system of data set [2] is mice fattened on a high fat/high sucrose diet (HF/HS). The experiment in a line: Intraperitoneal Glucose Tolerance Test (IPGTT). The class given is in vivo. Conditions: TZD 10 mg/kg/day.

“Also recorded” adds a separate entry of the source.

With `CN(CCOc1ccc(CC2SC(=O)NC2=O)cc1)c1ccccn1` (stereo not drawn) [TZD, Rosiglitazone], in data set [1], the “GSH-S-transferase (target PXR) mRNA in the liver” value was “↑”. Moreover, the “IPGTT (glucose resistance, AUC)” value is “does not act” in data set [2] (curative) and “no significant AUC reduction; also recorded: reduces glucose resistance” in data set [2] (preventive).
